Measurements reported in BindingDB's records for doi:10.1124/jpet.105.083337 (Neurocrine Biosciences, 2005).

Chains of the proteins cited; added tags and fusions are not shown.
UniProt P32245, whole entry: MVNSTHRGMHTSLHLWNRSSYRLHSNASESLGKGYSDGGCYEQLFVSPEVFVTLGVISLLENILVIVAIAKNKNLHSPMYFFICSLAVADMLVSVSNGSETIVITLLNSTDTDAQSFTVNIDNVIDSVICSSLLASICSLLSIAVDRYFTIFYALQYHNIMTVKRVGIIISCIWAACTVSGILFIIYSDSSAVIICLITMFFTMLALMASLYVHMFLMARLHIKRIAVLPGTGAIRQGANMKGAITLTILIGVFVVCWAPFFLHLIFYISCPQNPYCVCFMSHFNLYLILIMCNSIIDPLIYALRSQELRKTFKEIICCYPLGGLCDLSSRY

Biological target: Melanocortin receptor 4 (Homo sapiens, UniProt P32245)

Q: With `CC(C)C(O)(C(=O)OCC1=CCN2CCC(O)C12)C(C)O` (stereo unspecified) [CAS_114843] as the molecule, how does the Ki read?
A: Its Ki is 0.0186 µM.
